Laboratory results taken from patent US7709500B2, “Chemical compounds” (AstraZeneca AB, priority 2002, dated 2010).

Protein sequences, listed by entry. Tags and fused reporters are not part of them.
UniProt P35367, whole entry: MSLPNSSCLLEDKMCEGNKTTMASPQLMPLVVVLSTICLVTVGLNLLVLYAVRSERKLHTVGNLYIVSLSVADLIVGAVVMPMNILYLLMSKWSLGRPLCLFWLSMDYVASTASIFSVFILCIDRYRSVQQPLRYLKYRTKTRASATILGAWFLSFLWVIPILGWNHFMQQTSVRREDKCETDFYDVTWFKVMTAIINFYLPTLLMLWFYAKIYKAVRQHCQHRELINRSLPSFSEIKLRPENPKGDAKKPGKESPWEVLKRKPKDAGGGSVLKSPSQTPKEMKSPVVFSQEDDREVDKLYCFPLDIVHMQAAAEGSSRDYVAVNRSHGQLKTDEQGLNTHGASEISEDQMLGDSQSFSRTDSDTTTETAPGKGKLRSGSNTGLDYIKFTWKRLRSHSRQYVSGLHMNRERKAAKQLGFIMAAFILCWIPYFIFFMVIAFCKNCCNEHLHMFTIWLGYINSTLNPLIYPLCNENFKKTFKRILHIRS

Target: T1, human H1 receptor (Homo sapiens, UniProt P35367)
T1 construct: purchased Euroscreen SA, Brussels, Belgium ES-390-M; host or cells: recombinant CHO-K1 cells (membranes)
Experiment: Histamine H1 receptor binding, competition displacement of [3H]-pyrilamine
Settings: 1 nM [3H]-pyrilamine; membranes from recombinant CHO-K1 cells expressing the human H1 receptor; read-out: H1 pKi/[1328_S] (converted)

## O=C(NC[C@@H](O)CN1CCC(Oc2ccc(Cl)c(Cl)c2)CC1)c1n[nH]c(=O)c2ccccc12 [Example 46, N-{(2R)-3-[4-(3,4-Dichlorophenoxy)piperidin-1-yl]-2-hydroxypropyl}-oxo-3,4-dihydrophthalazine-1-carboxamide]
  Ki: 6.31 nM
